# Reference: PubChem BioAssay AID2451 (National Center for Advancing Translational Sciences (NCATS), 2010)
# Protein sequences, listed by entry. Tags and fused reporters are not part of them.
# UniProt A8B2U2, whole entry: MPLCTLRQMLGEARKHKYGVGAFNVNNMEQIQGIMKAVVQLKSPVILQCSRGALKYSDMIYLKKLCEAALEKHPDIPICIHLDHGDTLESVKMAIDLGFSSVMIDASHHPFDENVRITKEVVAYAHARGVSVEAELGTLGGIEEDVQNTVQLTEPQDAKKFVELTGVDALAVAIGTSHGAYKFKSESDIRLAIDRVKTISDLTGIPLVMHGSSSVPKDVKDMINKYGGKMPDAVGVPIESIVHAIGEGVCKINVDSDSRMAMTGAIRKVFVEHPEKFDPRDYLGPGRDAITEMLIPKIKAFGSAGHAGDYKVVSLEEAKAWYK
# Only a part is listed here, and it is no random draw. Results filed as inconclusive are left out. Activity calls are given as the source filed them. Calls come from the whole dose curve; as a rule, active = well fitted inhibition curve with a large enough effect; inconclusive = small, poorly fitted or top-dose-only effect, or effect the other way; inactive = flat fitted curve, though single readings scatter.
# Target: Fructose-bisphosphate aldolase (Giardia intestinalis (strain ATCC 50803 / WB clone C6)) (UniProt A8B2U2)
# Assay: qHTS Assay for Inhibitors of Fructose-1,6-bisphosphate Aldolase from Giardia Lamblia; note: nearly all actives have a fitted effect of over 55% in size
# Details: purified Giardia FBPA; at 59.6 µM (top of the series)
# % is set by controls: 0 for no effect and ±100 for the full control effect.
row,SMILES,"activity, negative = inhibition"
1,CN(CCCl)CCCl,inactive: -0.755%
